# Ab-14 heavy chain CDR variants: yeast mating affinities

Binding partner: SARS-CoV-2 spike HR2 peptide, sequence PDVDLGDISGINAS.

The variants keep the light chain, the linker and the frameworks of Ab-14 (scFv order VH, three GGGGS repeats, VL).
VH: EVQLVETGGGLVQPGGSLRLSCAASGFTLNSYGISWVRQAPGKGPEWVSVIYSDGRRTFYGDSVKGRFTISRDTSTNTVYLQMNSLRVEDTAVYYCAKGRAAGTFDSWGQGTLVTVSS
VL: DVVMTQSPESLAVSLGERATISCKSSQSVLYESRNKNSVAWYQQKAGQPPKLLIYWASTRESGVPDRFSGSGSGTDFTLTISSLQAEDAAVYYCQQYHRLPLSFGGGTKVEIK

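The parent was found by panning a naive human phage display library on the peptide. Variants in AAYL49 differ from the parent at up to three CDR positions; double and triple changes were sampled at random. The assay is AlphaSeq: two haploid yeast populations carry antibody and antigen on their surface. Mating (16 h, 30 °C) was followed by selection of diploids and sequencing of their barcodes. The ratio of observed to expected reads was calibrated, replicate by replicate, on BCL2-family standards whose Kd was known from biolayer interferometry. There are three technical replicates.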

The parent's heavy chain CDRs are GFTLNSYGIS, VIYSDGRRTFYGDSVK, GRAAGTFDS; each variant's own CDRs replace them letter for letter. Values are log10 of the apparent Kd in nM; lower means stronger binding. Averages over replicates are reported, and they cover detected replicates only. "not detected" means that the variant was in the library but no mating with the target was seen in any replicate; the authors take this as a sign of poor binding, and no number exists. Three control strains display no target. For library AAYL49, 15% of the pairings with them gave a signal, with a median of 4.06 and one signal in twenty below 2.83, so weak values seen in few replicates may be background. For each scFv, signals with the empty controls are counted beside the result. In this assay the parent's reference entry averaged 0.65; its copy inside this library read 4.11 (one replicate of three).

CDR-H1 | CDR-H2 | CDR-H3 | mean, log10 nM | seen in | empty controls
GFTLNQYGIS | VDYSDGRRTFYGDSVD | GRAAGTFDS | not detected | 0/3 | 0/9
GFTLNSYGIS | VIYCDGRRTFYGDSFK | GRAAGTGDS | 3.61 | 1/3 | 0/9
GSTLNSYGIS | VIYSDGRRWFYQDSVK | GRAAGTFDS | 3.35 | 2/3 | 3/9
GFNLNSYGIT | VIYSDGRRTFYGDSVC | GRAAGTFDS | not detected | 0/3 | 0/9
GFTLNSYSIS | VIYEDGRRTFYPDSVK | GRAAGTFDS | not detected | 0/3 | 2/9
GFTLNSYGIS | SIYSDGRMTFYGDSVK | GRWAGTFDS | not detected | 0/3 | 0/9
GFTLNSYGNS | VIYSDGRRTFYGDSHK | GRAAGTFDQ | 4.43 | 2/3 | 3/9
RFTDNWYGIS | VIYSDGRRTFYGDSVK | GRAAGTFDS | 0.69 | 3/3 | 2/9
RFTLNSYGIS | VIYSDGQRTFYGDSVK | GRAAGQFDS | 3.10 | 3/3 | 2/9
GFTLNSYGIS | VIYSDGRRTMYGDSKK | GRAAGTFDS | not detected | 0/3 | 5/9
GFTLNSYGQS | VIKSDGRRTFYGDSVK | QRAAGTFDS | not detected | 0/3 | 1/9
GFTLNSYGIS | CIYSDGRRGFYGDSVK | GRAAGLFDS | not detected | 0/3 | 2/9
GFTLNSYGIS | VMYSDGRRTFYGDSMK | GRAAGTEDS | 3.19 | 1/3 | 0/9
GWTLNSYGIS | VIYDDGRRTFYGDSVK | SRAAGTFDS | not detected | 0/3 | 2/9
GFTLNSYGIS | VIYSDGRRTYYGDSVK | ERAAMTFDS | not detected | 0/3 | 1/9
GFTLNSYGIS | VIYSDGRRTFYGDVVK | GRAAGTRDS | not detected | 0/3 | 2/9
GFTLNSYGIS | VIPSDGRRTFYGDSVK | RRAAGTFDS | not detected | 0/3 | 3/9
RFTLFSYGIS | VIYLDGRRTFYGDSVK | GRAAGTFDS | 4.06 | 2/3 | 0/9
GFTDNSYGIS | VIYSDGRRTFYGDSVK | GGAAGTSDS | 3.42 | 1/3 | 0/9
LFTLNSNGIS | VRYSDGRRTFYGDSVK | GRAAGTFDS | not detected | 0/3 | 0/9
GFTLNSGGIS | VIYSDGRRTFYRDSVK | GRAAGTFDV | 4.89 | 1/3 | 1/9
GSTLNSYGIS | VIYSDGRRTFDGDSVK | GRCAGTFDS | not detected | 0/3 | 0/9
GFTLNSYKIS | VIYSDGRRAFYGLSVK | GRAAGTFDS | 3.29 | 1/3 | 2/9
GCTLNSYGIS | VIYWDGRRTCYGDSVK | GRAAGTFDS | not detected | 0/3 | 1/9
GFTLNSYGIS | VDYSDWRRTFYGDSVK | GRAFGTFDS | 4.63 | 1/3 | 2/9
GFTANSYGIS | VIYSDGRRTFYDDSVK | GRAAGTKDS | 1.96 | 3/3 | 0/9
GFTLNSYGIS | VIYSDGPCTFYGDSVK | GRADGTFDS | not detected | 0/3 | 0/9
GFTLNSYGIS | VIYSFGRSTFYGDSVK | GRAAGTRDS | not detected | 0/3 | 1/9
GFTLPSYTIS | VIYSDGRGTFYGDSVK | GRAAGTFDS | not detected | 0/3 | 0/9
GFTLNSYGIS | VIYSDGVRTFAGDSVK | GRAAGTFDS | 2.36 | 3/3 | 1/9
GFSLNSYGIT | VIYSDGRRTFYGDSVK | GRAAGTLDS | 3.08 | 1/3 | 0/9
GFTLNSYGIP | VFYSDGRRTFYGDAVK | GRAAGTFDS | not detected | 0/3 | 0/9
GFTLNSYYIS | VIYSDGRATFYGESVK | GRAAGTFDS | not detected | 0/3 | 0/9
GFTLNSYGIS | VIYSDGRRTFGGDSQK | GRAAGTFDS | 3.24 | 1/3 | 4/9
GFTLNSYGIS | VIYSDGRRTLYGDSVK | GRAAGDFDS | not detected | 0/3 | 1/9
GFTLNSYGIS | FIYSDGRRTFYGDSVK | GRAIGTFPS | not detected | 0/3 | 2/9
CFTLNSYGIS | VIYSDGRRTFYGDSHK | GRAAHTFDS | not detected | 0/3 | 0/9
GFTLNFYGIV | VIYSDIRRTFYGDSVK | GRAAGTFDS | 4.05 | 1/3 | 2/9
GFTLNTYDIS | VIYSDGRETFYGDSVK | GRAAGTFDS | not detected | 0/3 | 0/9
GFTLSSYGIS | VIPSDGRRTFYGDSVK | GMAAGTFDS | 2.80 | 1/3 | 1/9
GRTLNSAGIS | VIYSDGRRTFYGDSVQ | GRAAGTFDS | 6.50 | 1/3 | 4/9
GGTLNSYGIS | VIYSDGRRFFYGDSVK | GRIAGTFDS | 3.60 | 3/3 | 3/9
GFTENSYGIS | VIYSDGRRTFYGDSVK | GRAAGDFDD | 5.02 | 2/3 | 3/9
GFTLNSYGIS | VIYVDGRRTFYGDSVK | GRAAGTFPE | 4.23 | 3/3 | 6/9
GFTLNSYGIS | VIWSDGRRTFYGDSKK | GRMAGTFDS | not detected | 0/3 | 0/9
GFTLNSYGIS | VILLDGRRTFYGDSVK | GCAAGTFDS | not detected | 0/3 | 1/9
GFTLNSYGIS | WIYSDFRRTFYGDSVK | GRAAGTFDS | 4.40 | 1/3 | 3/9
GFTLNSYGIS | VIRSDGRRTFYCDSVK | GRAAGTFDH | 4.53 | 1/3 | 2/9
GFTLGSYGTS | VIYSDGRRTFYGDSEK | GRAAGTFDS | 4.64 | 1/3 | 5/9
GLTLNSYGIS | NIYSDGRRTFYGDAVK | GRAAGTFDS | not detected | 0/3 | 2/9
GFTLNSYGIS | VIWFDGRRTFYGDSVK | GRAAETFDS | 4.22 | 1/3 | 2/9
GFTLNSYGIS | VISSDGRSTFYGDSRK | GRAAGTFDS | not detected | 0/3 | 0/9
GFTLNSYIIS | VIYSDGRRTFYKDSVL | GRAAGTFDS | 4.94 | 1/3 | 1/9
GFTLNSTGIS | VIYSDGRRTQYGDSVK | FRAAGTFDS | not detected | 0/3 | 0/9
GFTLNSYGIS | LIYSDGRRTFYGDSEK | GRAAGTFDS | not detected | 0/3 | 5/9
GFTLNQCGIS | VIYSDGRRTFYGDSVK | GRAAGTGDS | 2.06 | 1/3 | 0/9
GFTLNSYKIS | VIYSDGRRTFYCDSVK | GPAAGTFDS | 5.19 | 1/3 | 3/9
GFTLNSYYIS | VIFSDGRRTFYGDSVK | GIAAGTFDS | 3.06 | 1/3 | 1/9
GFTLNSYGIS | VIYSDGRRTFYGDSVK | PRALGTFDS | 1.43 | 3/3 | 3/9
GFTLNSYAIS | VIYSDGRRTFDGDSVK | GRAAQTFDS | not detected | 0/3 | 0/9
GFTLNSYGIS | VIYSDQRRTFYGDSVK | GGAAGTFVS | not detected | 0/3 | 0/9
GFTLNSYGIS | VYNSDGRRTFGGDSVK | GRAAGTFDS | not detected | 0/3 | 1/9
GFTLNSYGIS | VIYSDGRRPFYGDSVK | GRAASTFLS | 4.00 | 1/3 | 2/9
GFTLNSYTIS | VIYLFGRRTFYGDSVK | GRAAGTFDS | not detected | 0/3 | 0/9
GFTLNSYGIS | VIYSDGRRTFSGDSVK | GRPAGTFDS | 4.58 | 2/3 | 6/9
GFTLNSYGIS | VIYSCGRRAKYGDSVK | GRAAGTFDS | 5.26 | 1/3 | 3/9
GFTLNQYGIS | VIYYDGRRTFYGDSVK | GRAAYTFDS | not detected | 0/3 | 0/9
GFTLNSYGIS | SIYSDGRRTFYGDSVK | GRTACTFDS | 2.14 | 1/3 | 0/9
FFTLNSYGIA | VIYSDGRRTFYGDSVK | GRAAGTFDS | 4.56 | 1/3 | 3/9
GFNLNSYGIS | RIYSDGRRTFYGDSVK | ERAAGTFDS | not detected | 0/3 | 1/9
GFTLNWYGIS | VIYSDGMRTFYGDSVK | GRAAGTFDP | not detected | 0/3 | 0/9
GFTLNSYGIS | MIYSDGRRTFYGDSVK | GRAAGTFAS | 3.77 | 1/3 | 0/9
GFTLNSYRIS | VIYSMGRRTFYGDSVK | GRAAGTFDS | not detected | 0/3 | 0/9
GFTLNSYGIS | CIYSDGRRTFYGDSVK | GRALGCFDS | 4.94 | 1/3 | 1/9
GFTLVSYGIS | VIYSDGRRTFCGDSVK | GRAAGTFPS | not detected | 0/3 | 1/9
GFTLNSYGQS | VIYSDGRRTFKGDCVK | GRAAGTFDS | 4.69 | 1/3 | 2/9
GNTLNSYGIS | VIYSDGRRTFYTDSVK | GRVAGTFDS | 0.07 | 3/3 | 1/9
TFTLNSYHIS | VIYSDGRRTFYGDSVK | GRAAGTFHS | not detected | 0/3 | 0/9
GFTLNSYVIS | TIYSDGRRTFPGDSVK | GRAAGTFDS | not detected | 0/3 | 0/9

Excerpt, the final 7 entries:

CDR-H1,CDR-H2,CDR-H3,"mean, log10 nM",seen in,empty controls
GFTLNSYRIS,VIYSMGRRTFYGDSVK,GRAAGTFDS,not detected,0/3,0/9
GFTLNSYGIS,CIYSDGRRTFYGDSVK,GRALGCFDS,4.94,1/3,1/9
GFTLVSYGIS,VIYSDGRRTFCGDSVK,GRAAGTFPS,not detected,0/3,1/9
GFTLNSYGQS,VIYSDGRRTFKGDCVK,GRAAGTFDS,4.69,1/3,2/9
GNTLNSYGIS,VIYSDGRRTFYTDSVK,GRVAGTFDS,0.07,3/3,1/9
TFTLNSYHIS,VIYSDGRRTFYGDSVK,GRAAGTFHS,not detected,0/3,0/9
GFTLNSYVIS,TIYSDGRRTFPGDSVK,GRAAGTFDS,not detected,0/3,0/9

Data: MIT Lincoln Laboratory AlphaSeq set, Engelhart et al. 2022, doi:10.1038/s41597-022-01779-4, as distributed in FLAb.